Experimental data taken from patent publication US11793886B2, “Hydrophilic linkers and conjugates thereof” (GLYKOS FINLAND OY, priority 2017, dated 2023).

Experiments:
[1] = Pharmacokinetics in mice, human IgG (ADC) in serum by ELISA; conditions: single i.v. dose 10 mg/kg, up to 15 d
NCI-N87 cells = experiment: In vivo efficacy in subcutaneous HER2-positive tumor xenograft mouse model; parameters: species or system NU(NCr)-Foxnlnu nude mice; conditions: NCI-N87 xenograft mice, IV four times at seven day intervals
Text: Seventy five (75) NU(NCr)-Foxnlnu nude mice (9-10 weeks old) were obtained from the Harlan Laboratories and went through 1-week acclimatization per IACUC guidelines (IACUC study LC03337 protocol approval on Jan. 29, 2018; Altogen Labs, Austin, Tex., USA). Mice were housed at Altogen Labs animal facility. The purpose of the study was to test in vivo efficacy of anti-HER2 antibody-drug conjugates (ADCs) compared to control treatment in a subcutaneous HER2-positive tumor xenograft mouse model (NCI-N87 cells, inoculated 1 million cells/mouse in 0.1 ml PBS mixed 1:1 with Matrigel). Trastuzumab-based ADCs conjugated at DAR=8 with maleimidocaproyl-Val-Ser(Glc)-PABC-MMAU were prepared and characterized as described above. Tumors were allowed to grow to approximately 100-150 cubic mm, after which the mice were randomly divided into groups of five mice/group with similar initial tumor sizes between the groups. Treatments were given IV four times at seven day intervals (i.e. once weekly for four weeks). Unconjugated antibody (trastuzumab, positive control) and PBS (negative control) were used in this study as control treatments. Tumor volume data were recorded twice a week. Each animal was evaluated individually and euthanized at the end of the study. Clinical signs and general behavior of the animals is observed in connection with dosing and sampling. Any unusual signs or behavior were recorded. At the end of the study, tumors were prepared and weighed.

[2] = test system: HER2+ SKOV-3 ovarian cancer cells; experiment: Cytotoxicity assay, serial dilution incubated with cells for four days, viability with PrestoBlue reagent; conditions: read-out: IC50 (cytotoxicity); SKOV-3 cells, Trastuzumab ADCs with DAR=8, FIG. 6

T-vc-MMAE DAR = 8: trastuzumab-maleimidocaproyl-Val-Cit-PABC-MMAE conjugate (DAR=8) [reference compound]
Retention in circulation (in words) [1]: rapidly lost from circulation

Trastuzumab: anti-HER2 antibody Trastuzumab (Herceptin, Roche), naked antibody
Average tumor size at end of study (NCI-N87 cells): 731 mm^3

trastuzumab-maleimidocaproyl-Val-Ser(Glc)-PABC-MMAU: Trastuzumab conjugated via reduced cysteines with maleimidocaproyl-Val-Ser(Glc)-PABC-MMAU, drug-to-antibody ratio about 8
Average tumor size at end of study (NCI-N87 cells): 477 mm^3
Tumor growth inhibition (in words) (NCI-N87 cells): effectively inhibited tumor growth in vivo
IC50 [2]: 0.073 nM
